The entries are a selection whose mix differs from that of the whole data set. Some tests of the compounds listed are not included; inactive here does not mean inactive elsewhere. Activity calls are given as the source filed them. Cut-off read from the data, not from the text of the source: active = z-score below about -3; inactive = the rest.

The experiment in a line: inhibitors of measles virus growth in cells, primary screen, measles RdRp inhibitor project, cell-based, single point, HTS (AID 745). As to conditions: infected Vero cells, GFP fluorescence, 64 h; active compounds read low.
As for `CC(CN(C)C(C)(C)C)OC(=O)C(O)(c1ccccc1)c1ccccc1` (stereo unspecified), the z-score is inactive: -0.74.
